Test results taken from patent publication US20240041840A1 (Areteia Therapeutics, Inc., priority 2020, published 2024).

System: subjects with eosinophilic asthma
Experimental: Pulmonary function is measured by performing a spirometry, which measures forced expiratory volume in is (FEV1), the volume of air moved in the first second of exhalation, this is a well-accepted measure of asthma. Forced vital capacity (FVC) is the total volume of air exhaled during the entire forced expiratory volume (FEV) test. The FEV1/FVC ratio is a calculated measure that may provide a more specific measure of bronchoconstriction, independent of processes such as air trapping. Pulmonary function testing can be tested pre-bronchodilator (after waiting a sufficient time so that all bronchodilator medications have cleared) or post-bronchodilator, typically 15-30 minutes after inhaling a short-acting bronchodilator, such as albuterol. Bronchodilator reversibility (BDR) is calculated and assessed by analyzing FEV1 pre- and post-bronchodilator, and calculating the change both as absolute (ml) and percentage change.
Evaluation of Efficacy: Blood eosinophil count, changes in pulmonary function (FEV1), Asthma Control Questionnaire (ACQ-6), Asthma Control Questionnaire (ACQ-7), Asthma Quality of Life Questionnaire (AQLQ), exhaled nitric oxide, pharyngeal and nasal eosinophil peroxidase were collected periodically during the study. […]

Question: With `CCCN[C@@H]1CCc2nc(N)sc2C1` [dexpramipexole, (6R)-2-amino-4,5,6,7-tetrahydro-6-(propylamino) benzothiazole] as the molecule, how does the “FEV1 change from Baseline LSM” value (150 mg/day, Week 16 or Week 18) read?
Answer: 0.128 L

Question: And the “Pre-Bronchodilator FEV1 Change from Baseline LSM” value (Week 16 or Week 18, pooled dexpramipexole arms, <50% AEC reduction at Week 12)?
Answer: 0.140 L
